Drawing on ChEMBL document CHEMBL2311273, “Discovery of potent, selective multidrug and toxin extrusion transporter 1 (MATE1, SLC47A1) inhibitors through prescription drug profiling and computational modeling” (J Med Chem, 2013), this text covers IC50 for 4 molecules.

The target in experiment [1] is T1, Multidrug and toxin extrusion protein 1 (Homo sapiens, UniProt Q96FL8).
T1 sequence (Q96FL8 whole entry): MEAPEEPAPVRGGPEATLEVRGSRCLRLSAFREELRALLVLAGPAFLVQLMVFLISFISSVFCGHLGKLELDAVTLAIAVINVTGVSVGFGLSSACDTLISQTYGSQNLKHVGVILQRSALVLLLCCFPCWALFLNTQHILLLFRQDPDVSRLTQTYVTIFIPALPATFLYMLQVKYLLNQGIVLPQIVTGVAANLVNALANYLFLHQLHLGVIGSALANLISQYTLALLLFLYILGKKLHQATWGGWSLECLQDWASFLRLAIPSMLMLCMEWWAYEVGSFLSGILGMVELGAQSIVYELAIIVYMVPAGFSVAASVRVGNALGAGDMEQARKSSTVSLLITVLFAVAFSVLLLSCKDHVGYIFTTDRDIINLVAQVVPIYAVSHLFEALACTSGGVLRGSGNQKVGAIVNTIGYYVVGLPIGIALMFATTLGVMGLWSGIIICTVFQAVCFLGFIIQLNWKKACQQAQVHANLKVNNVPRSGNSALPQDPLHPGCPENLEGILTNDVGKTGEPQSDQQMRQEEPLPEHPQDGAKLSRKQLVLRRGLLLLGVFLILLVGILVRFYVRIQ
Nature of the experiment: Inhibition of human MATE1-mediated ASP+ uptake expressed in HEK293 cells after 1.5 mins by fluorescence assay. Type of experiment: cell-based.

Experiment [2] has as its target T2, Multidrug and toxin extrusion protein 2 (Homo sapiens, UniProt Q86VL8).
T2 sequence (Q86VL8 whole entry): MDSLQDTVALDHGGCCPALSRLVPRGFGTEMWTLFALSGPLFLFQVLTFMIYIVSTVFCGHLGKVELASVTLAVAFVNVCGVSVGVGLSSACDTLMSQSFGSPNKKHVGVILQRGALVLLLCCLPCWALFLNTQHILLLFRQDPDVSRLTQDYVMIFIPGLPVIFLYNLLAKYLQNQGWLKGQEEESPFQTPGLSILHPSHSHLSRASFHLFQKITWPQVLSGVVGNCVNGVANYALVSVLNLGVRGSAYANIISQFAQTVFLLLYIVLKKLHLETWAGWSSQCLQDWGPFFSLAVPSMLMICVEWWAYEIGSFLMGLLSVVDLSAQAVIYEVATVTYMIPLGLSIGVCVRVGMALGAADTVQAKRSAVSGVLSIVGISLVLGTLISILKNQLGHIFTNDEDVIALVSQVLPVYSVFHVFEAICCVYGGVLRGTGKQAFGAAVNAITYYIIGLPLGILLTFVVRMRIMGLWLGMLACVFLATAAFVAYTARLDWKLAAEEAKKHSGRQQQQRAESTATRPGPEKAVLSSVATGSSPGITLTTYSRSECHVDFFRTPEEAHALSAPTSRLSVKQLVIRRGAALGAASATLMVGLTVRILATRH
Nature of the experiment: Inhibition of human MATE2K-mediated ASP+ uptake expressed in HEK293 cells after 1.5 mins by fluorescence assay. Type of experiment: cell-based.

Experiment [3] concerns the target T3, Solute carrier family 22 member 2 (Homo sapiens, UniProt O15244).
T3 sequence (O15244 whole entry): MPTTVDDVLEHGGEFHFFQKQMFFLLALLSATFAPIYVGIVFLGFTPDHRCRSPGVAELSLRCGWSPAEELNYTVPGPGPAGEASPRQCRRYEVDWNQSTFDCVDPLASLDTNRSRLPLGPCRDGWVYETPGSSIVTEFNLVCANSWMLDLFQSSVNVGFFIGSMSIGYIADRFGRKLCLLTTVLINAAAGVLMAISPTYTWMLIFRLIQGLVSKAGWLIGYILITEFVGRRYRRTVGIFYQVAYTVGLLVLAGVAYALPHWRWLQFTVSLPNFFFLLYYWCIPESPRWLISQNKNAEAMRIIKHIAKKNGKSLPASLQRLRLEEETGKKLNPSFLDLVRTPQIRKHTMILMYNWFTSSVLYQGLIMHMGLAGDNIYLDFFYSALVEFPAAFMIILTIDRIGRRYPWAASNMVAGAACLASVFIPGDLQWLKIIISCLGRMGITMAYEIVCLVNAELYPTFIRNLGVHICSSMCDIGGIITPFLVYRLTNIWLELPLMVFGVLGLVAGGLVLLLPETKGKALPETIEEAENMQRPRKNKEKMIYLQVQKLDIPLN
Description: Inhibition of human OCT2-mediated ASP+ uptake expressed in HEK293 cells after 3 mins by fluorescence assay. Type of experiment: cell-based.

Experiment [4] addresses T1, Multidrug and toxin extrusion protein 1. Nature of the experiment: Inhibition of human MATE1-mediated [14]-metformin uptake expressed in HEK293 cells after 1.5 mins by scintillation counting analysis. Type of experiment: cell-based.
Experiment [5] has the same target. Description: Inhibition of human MATE1-mediated [14]-metformin uptake expressed in polarized MDCK2 cells after 5 mins by liquid scintillation counting analysis. Type of experiment: cell-based, MDCK-II.

Bounds are passed on as bounds.

Take `Cc1nc2n(c(=O)c1CCN1CCC(c3noc4cc(F)ccc34)CC1)CCCC2` [RISPERIDONE]: the IC50 (commonly the midpoint of a concentration-inhibition curve) in experiment [1] is 1.6 µM; in experiment [2], 291 µM; in experiment [3] it was 11 µM.

As to `Cc1nccn1CC1CCc2c(c3ccccc3n2C)C1=O` (centres undefined) [ONDANSETRON], the IC50 in experiment [4] is 0.03 µM; in experiment [5], below 0.01 µM.

In the case of `COc1cc2nc(N3CCN(C(=O)c4ccco4)CC3)nc(N)c2cc1OC` [PRAZOSIN], in experiment [3], the IC50 amounted to 13.6 µM.

`O=C1CCc2ccc(OCCCCN3CCN(c4cccc(Cl)c4Cl)CC3)cc2N1` [ARIPIPRAZOLE]: the IC50 in experiment [1] is 130 µM; in experiment [2] it was above 500 µM; in experiment [3], 239 µM.
